Experimental data reported in US6114175A, “Compound for the antemortem diagnosis of Alzheimer's Disease and in vivo imaging and prevention of amyloid deposition” (priority 1998, dated 2000).

Legend:
AD brain = assay: Total [^14 C]Chrysamine G binding in AD brain homogenates; settings: n = 11, p = 0.15
control brain = assay: Total [^14 C]Chrysamine G binding in control brain homogenates; settings: n = 8

total binding, Occipital (AD brain): 95 ± 12 fmol/μg protein | total binding, Occipital (control brain): 64 ± 16 fmol/μg protein
SMILES: O=C(O)c1cc(N=Nc2ccc(-c3ccc(N=Nc4ccc(O)c(C(=O)O)c4)cc3)cc2)ccc1O [Chrysamine G, 4,4'-bis(3-carboxy-4-hydroxyphenylazo)-biphenyl]
